Earlier results as cited in US5770687A, “Comformationally constrained backbone cyclized somatostatin analogs” (Peptor Limited, priority 1996, dated 1998).

Chains of the proteins cited; added tags and fusions are not shown. Lines headed by an entry give the natural chain unless they say otherwise; changes in a name come on top.
UniProt P32745, whole entry, species assumed: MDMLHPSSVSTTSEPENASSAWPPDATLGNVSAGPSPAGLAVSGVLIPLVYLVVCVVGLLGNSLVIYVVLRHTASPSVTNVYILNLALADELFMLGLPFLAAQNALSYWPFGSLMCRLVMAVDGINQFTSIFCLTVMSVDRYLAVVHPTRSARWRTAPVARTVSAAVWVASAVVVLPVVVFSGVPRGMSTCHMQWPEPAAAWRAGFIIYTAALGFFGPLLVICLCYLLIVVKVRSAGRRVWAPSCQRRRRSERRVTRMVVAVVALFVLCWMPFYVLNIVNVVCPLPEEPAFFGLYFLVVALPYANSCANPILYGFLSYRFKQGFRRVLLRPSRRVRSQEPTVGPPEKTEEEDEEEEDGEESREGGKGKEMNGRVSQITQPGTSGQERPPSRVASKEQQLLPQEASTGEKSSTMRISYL
UniProt P30872, whole entry, species assumed: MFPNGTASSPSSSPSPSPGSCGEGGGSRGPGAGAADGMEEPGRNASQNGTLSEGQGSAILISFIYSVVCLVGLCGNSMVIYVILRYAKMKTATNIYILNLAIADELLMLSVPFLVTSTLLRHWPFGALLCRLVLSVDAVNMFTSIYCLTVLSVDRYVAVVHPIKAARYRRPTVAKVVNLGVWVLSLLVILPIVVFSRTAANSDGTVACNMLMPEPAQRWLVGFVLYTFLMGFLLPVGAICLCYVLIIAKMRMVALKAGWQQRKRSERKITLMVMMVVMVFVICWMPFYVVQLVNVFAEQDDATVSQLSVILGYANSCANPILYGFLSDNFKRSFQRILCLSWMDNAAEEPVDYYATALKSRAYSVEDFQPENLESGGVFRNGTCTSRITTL
UniProt P31391, whole entry, species assumed: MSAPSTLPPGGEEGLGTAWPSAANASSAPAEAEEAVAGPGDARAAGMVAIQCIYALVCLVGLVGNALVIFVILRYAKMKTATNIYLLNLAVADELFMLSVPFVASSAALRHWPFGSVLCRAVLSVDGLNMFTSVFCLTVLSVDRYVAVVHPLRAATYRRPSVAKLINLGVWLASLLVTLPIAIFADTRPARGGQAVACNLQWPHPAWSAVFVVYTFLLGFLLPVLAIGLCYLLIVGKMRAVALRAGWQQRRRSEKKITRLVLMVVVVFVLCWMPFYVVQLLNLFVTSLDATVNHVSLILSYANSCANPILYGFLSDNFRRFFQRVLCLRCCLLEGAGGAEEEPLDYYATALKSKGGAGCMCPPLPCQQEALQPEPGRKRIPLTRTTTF
UniProt P35346: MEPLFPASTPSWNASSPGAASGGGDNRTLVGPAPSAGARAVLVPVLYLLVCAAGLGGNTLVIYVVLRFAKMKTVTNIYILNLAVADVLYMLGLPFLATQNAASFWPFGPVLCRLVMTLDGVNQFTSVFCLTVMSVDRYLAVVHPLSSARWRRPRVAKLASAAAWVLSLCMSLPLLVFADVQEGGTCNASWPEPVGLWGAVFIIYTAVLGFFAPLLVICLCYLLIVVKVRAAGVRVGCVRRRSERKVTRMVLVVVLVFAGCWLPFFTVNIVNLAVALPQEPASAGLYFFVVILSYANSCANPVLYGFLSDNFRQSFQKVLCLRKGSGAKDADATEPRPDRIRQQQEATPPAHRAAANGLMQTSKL

What was measured:
SSTR-3 = SSTR-3 (Homo sapiens, UniProt P32745); settings: Table 22; known SST analogs, literature values; cited from earlier work
SSTR-1 = SSTR-1 (Homo sapiens, UniProt P30872); settings: Table 22; known SST analogs, literature values; cited from earlier work
SSTR-4 = SSTR-4 (Homo sapiens, UniProt P31391); settings: Table 22; known SST analogs, literature values; cited from earlier work
human SSTR-5 = human SSTR-5 (Homo sapiens, UniProt P35346); settings: Table 22; known SST analogs, literature values; read-out: IC50 value hSSTR 5; cited from earlier work

Substance | IC50 (SSTR-3) [nM] | IC50 (SSTR-1) [nM] | IC50 (SSTR-4) [nM] | IC50 (human SSTR-5) [nM]
DPhe^5 -Phe^6 -Phe^7 -DTrp^8 -Lys^9 -Thr^10 -Phe^11 -Thr^12 -NH2 [BIM-23052] | 0.4 | 23 | – | –
DPhe^5 -cyclo(Cys^6 -Tyr^7 -DTrp^8 -Lys^9 -Val^10 -Cys^11)-Trp^12 -NH2 [RC-160] | 0.1 | 200 | 620 | 21
